Data set [1] has as its system mice. The data set is described as follows: Maximal electroshock (MES) model in mice, i.p.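 Further: Electroshock-induced convulsion model serving to demonstrate antiepileptic efficacy against generalized and partial seizures.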 In kind it is in vivo. The conditions noted are these: Mus musculus, ip, Table 15.
Data set [2] relates to rats. Conditions: Rattus norvegicus, po, read-out: RATS scMet ED50.
Data set [3] relates to rats. The data set is described as follows: Neurotoxicity in rats (positional sense test and gait stance test), p.o. Conditions: Table 16.
Another data set in a line: in vivo. The conditions noted are these: rat, po.
Data set [4] is described as follows: Neurotoxicity in mice (rotorod ataxia test), i.p. The conditions noted are these: mouse, in vivo, ip.
The test system of data set [5] is mice. Briefly: Neurotoxicity in mice (rotorod ataxia test), i.p. Conditions: mice, i.p.; Table 16.
For data set [6], the system named is mice. Conditions: Mus musculus, ip, read-out: MICE scMet ED50.
Data set [7] relates to rats. The data set is described as follows: Closed head injury in rats: brain oedema (water content), Experiments 4A-4E. In kind it is in vivo.
The next data set has as its system hypoxic rat. Briefly: α-MpT-induced hypokinesia in hypoxic rat (locomotor activity), Experiments 1A-1C. The conditions noted are these: Mean ± SEM.
Setting [8] is: Exp 4A, 0.1mg/kg i.p. at 0,4,8 and 12 hours post-trauma, 24 hours.
[9] abbreviates: Exp 1A, 0.5mg/kg/Day gavage 70-80 days, α-MpT 100mg/kg i.p., Hour 1.
Setting [10] is: Exp 1A, 0.5mg/kg/Day gavage 70-80 days, α-MpT 100mg/kg i.p., Hour 2.
Where [11] appears, read: Exp 1A, 0.5mg/kg/Day gavage 70-80 days, α-MpT 100mg/kg i.p., Hour 3.
Where [12] appears, read: Exp 1A, 0.5mg/kg/Day gavage 70-80 days, α-MpT 100mg/kg i.p., Hour 4.
Where [13] appears, read: Exp 1A, 0.5mg/kg/Day gavage 70-80 days, α-MpT 100mg/kg i.p., Hour 5.
[14] abbreviates: Exp 1A, 0.5mg/kg/Day gavage 70-80 days, α-MpT 100mg/kg i.p., Hour 6.
Setting [15] is: Exp 1A, 0.5mg/kg/Day gavage 70-80 days, α-MpT 100mg/kg i.p., Hour 7.
The mark [16] stands for this setting: Exp 1A, 0.5mg/kg/Day gavage 70-80 days, α-MpT 100mg/kg i.p., Hour 8.
The mark [17] stands for this setting: Exp 1A, 0.5mg/kg/Day gavage 70-80 days, α-MpT 100mg/kg i.p., Hour 10.
Setting [18] is: Exp 1B, 0.3 mg/Kg daily i.p. 21 days, α-MpT 70 mg/Kg, Hour 1.
[19] abbreviates: Exp 1B, 0.3 mg/Kg daily i.p. 21 days, α-MpT 70 mg/Kg, Hour 2.
Where [20] appears, read: Exp 1B, 0.3 mg/Kg daily i.p. 21 days, α-MpT 70 mg/Kg, Hour 3.
The mark [21] stands for this setting: Exp 1B, 0.3 mg/Kg daily i.p. 21 days, α-MpT 70 mg/Kg, Hour 4.
[22] abbreviates: Exp 1B, 0.3 mg/Kg daily i.p. 21 days, α-MpT 70 mg/Kg, Hour 5.
Where [23] appears, read: Exp 1B, 0.3 mg/Kg daily i.p. 21 days, α-MpT 70 mg/Kg, Hour 6.
Where [24] appears, read: Exp 1B, 0.3 mg/Kg daily i.p. 21 days, α-MpT 70 mg/Kg, Hour 7.
[25] abbreviates: Exp 1B, 0.3 mg/Kg daily i.p. 21 days, α-MpT 70 mg/Kg, Hour 8.
[26] abbreviates: Exp 1B, 0.3 mg/Kg daily i.p. 21 days, α-MpT 70 mg/Kg, Hour 9.
The mark [27] stands for this setting: Exp 1B, 0.3 mg/Kg daily i.p. 21 days, α-MpT 70 mg/Kg, Hour 10.

Consider seven compounds from EP0738149B1, “1-AMINOINDAN DERIVATIVES AND COMPOSITIONS THEREOF” (priority 1994, dated 1995).

Where “and” joins values, the source holds several entries; their conditions need not be identical. Equal entries are not always repeated. Where two headings read alike, the source gives them in different places.

`NC1CCc2ccccc21` (racemic) [A, 1-aminoindan]: the ED50 with mice [1] is < 100 mg/kg; with rats [2], > 250 mg/kg.
Consider `C#CCN[C@@H]1CCc2ccccc21.Cl` [E, (R)-N-propargyl-1-aminoindan HCl salt], for which the “RATS TD50” value in the data set with rats [3] was >50 mg/kg. For the same compound, the TD50 was > 50 mg/kg in the data set “in vivo” and 153 mg/kg in data set [4]. Moreover, the “MICE TD50” value against mice [5] is 153 mg/kg.
As to `C#CCN[C@@H]1CCc2ccccc21.CS(=O)(=O)O` [F, (R)-N-propargyl-1-aminoindan mesylate salt], the TD50 in data set [4] is > 300 mg/kg. Moreover, the “MICE TD50” value against mice [5] was >300 mg/kg.
Take `C#CCN[C@H]1CCc2ccccc21.Cl` [G, (S)-N-propargyl-1-aminoindan HCl salt]: in the data set on rats [3], the “RATS TD50” value is reported as >500 mg/kg. Also, the TD50 (in “in vivo”; in data set [4]) was > 500 mg/kg throughout. Further, the “MICE TD50” value against mice [5] is >500 mg/kg.
With `C#CCN[C@H]1CCc2ccccc21.CS(=O)(=O)O` [H, (S)-N-propargyl-1-aminoindan mesylate salt], the TD50 in data set [4] was determined as 141 mg/kg. Also, the “MICE TD50” value against mice [5] is on record as 141 mg/kg.
`N[C@@H]1CCc2ccccc21` [R-AI, (R)-1-aminoindan]: the median effective dose (ED50) in the data set on mice [1] is 80 mg/kg; in the data set with mice [6] it was > 100 mg/kg; in the data set with rats [2], > 250 mg/kg. Moreover, the “% water in the brain” value in the data set on rats [7] (setting [8]) stood at 81.5±0.5 %; in the data set on rats [7] (Exp 4C, 0.03 mg/kg), 81.0±0.7%; with rats [7] (Exp 4C, 0.1 mg/kg) it was 81.8±0.6%; with rats [7] (Exp 4C, 0.3 mg/kg), 81.8±0.7%; in the data set on rats [7] (Exp 4C, 1.0 mg/kg) it was 81.5±0.5%; with rats [7] (Exp 4C, 3.0 mg/kg) it was 81.9±0.7%. The “% water in the brain” value is on record as 81.2±0.6% with rats [7] (Exp 4D, 1mg/kg, times of administration 0); 81.2±0.4% in the data set with rats [7] (Exp 4D, 1mg/kg, times of administration 0 + 4h); 81.8±0.5% in the data set with rats [7] (Exp 4D, 1mg/kg, times of administration 0 + 8h); 80.7±0.5% with rats [7] (Exp 4D, 1mg/kg, times of administration 0 + 12h); 81.5±0.5% in the data set with rats [7] (Exp 4D, 1mg/kg, times of administration 0,4,8,12h); 81.7±0.4% in the data set with rats [7] (Exp 4E, 1mg/kg given + 1h post head trauma). For the same compound, the “% water in the brain” value with rats [7] (Exp 4E, 1mg/kg given + 2h post head trauma) is listed as 82.5±0.4%; in the data set on rats [7] (Exp 4E, 1mg/kg given + 3h post head trauma) it was 81.8±0.5%. Further, the “Locomotor activity after α-MpT treatment, recorded as big movements” value (from here on “Locomotor activity … as big movements”) in the data set on hypoxic rat (setting [9]) was determined as 109 ± 27%; in the data set with hypoxic rat (setting [10]), 125 ± 29%; with hypoxic rat (setting [11]), 151 ± 36%; in the data set on hypoxic rat (setting [12]), 165 ± 40%; in the data set with hypoxic rat (setting [13]), 254 ± 55%; in the data set on hypoxic rat (setting [14]), 201 ± 50%. For the same compound, the “Locomotor activity … as big movements” value with hypoxic rat (setting [15]) is on record as 201 ± 50%; in the data set on hypoxic rat (setting [16]) it was 89 ± 23%; in the data set on hypoxic rat (setting [17]), 190 ± 34%; with hypoxic rat (setting [18]) it was 96 ± 18%; in the data set on hypoxic rat (setting [19]), 97 ± 16%; in the data set with hypoxic rat (setting [20]), 117 ± 45%. Moreover, the “Locomotor activity … as big movements” value in the data set with hypoxic rat (setting [21]) turned out to be 91 ± 11%; in the data set on hypoxic rat (setting [22]), 67 ± 11%; with hypoxic rat (setting [23]), 58 ± 14%; in the data set on hypoxic rat (setting [24]), 68 ± 15%; in the data set on hypoxic rat (setting [25]), 34 ± 6%; in the data set with hypoxic rat (setting [26]) it was 84 ± 19%. Also, the “Locomotor activity … as big movements” value with hypoxic rat (setting [27]) amounted to 44 ± 6%. In addition, the “Locomotor activity after α-MpT treatment, recorded as total movements” value (shortened to “Locomotor activity … as total movements”) in the data set with hypoxic rat (setting [9]) is 67 ± 8%; in the data set with hypoxic rat (setting [10]), 79 ± 12%; in the data set on hypoxic rat (setting [11]), 198 ± 60%; in the data set on hypoxic rat (setting [12]), 196 ± 17%; in the data set with hypoxic rat (setting [13]), 138 ± 19%; with hypoxic rat (setting [14]), 77 ± 17%. In addition, the “Locomotor activity … as total movements” value in the data set on hypoxic rat (setting [15]) is 173 ± 30%; in the data set with hypoxic rat (setting [16]) it was 104 ± 18%; in the data set on hypoxic rat (Exp 1A, 0.5mg/kg/Day gavage 70-80 days, α-MpT 100mg/kg i.p., Hour 9), 95 ± 16%; in the data set on hypoxic rat (setting [17]) it was 114 ± 41%; with hypoxic rat (setting [18]), 80% and 80 ± 15%; in the data set with hypoxic rat (setting [19]), 87 ± 13%. Also, the “Locomotor activity … as total movements” value with hypoxic rat (setting [20]) was 132 ± 25%; with hypoxic rat (setting [21]), 115 ± 24%; in the data set on hypoxic rat (setting [22]), 65 ± 28%; in the data set with hypoxic rat (setting [23]), 76 ± 11%; with hypoxic rat (setting [24]), 65 ± 7%; in the data set with hypoxic rat (setting [25]) it was 40 ± 6%. In addition, the results for the “Locomotor activity … as total movements” value with hypoxic rat (setting [26]) and with hypoxic rat (setting [27]) were 72 ± 12% and 69 ± 18%, respectively.
On to `N[C@H]1CCc2ccccc21` [SAI, (S)-1-aminoindan], for which the median effective dose (ED50) was 18 mg/kg in the data set on mice [1], > 60 mg/kg in the data set on mice [6] and > 250 mg/kg in the data set on rats [2]. Moreover, the “% water in the brain” value in the data set on rats [7] (setting [8]) is given as 84.0±0.8%.
